Experimental data reported in ChEMBL document CHEMBL3603773, “Synthesis of novel triazoles and a tetrazole of escitalopram as cholinesterase inhibitors” (Bioorg Med Chem, 2015).

Chains of the proteins cited; added tags and fusions are not shown.
UniProt P06276, whole entry: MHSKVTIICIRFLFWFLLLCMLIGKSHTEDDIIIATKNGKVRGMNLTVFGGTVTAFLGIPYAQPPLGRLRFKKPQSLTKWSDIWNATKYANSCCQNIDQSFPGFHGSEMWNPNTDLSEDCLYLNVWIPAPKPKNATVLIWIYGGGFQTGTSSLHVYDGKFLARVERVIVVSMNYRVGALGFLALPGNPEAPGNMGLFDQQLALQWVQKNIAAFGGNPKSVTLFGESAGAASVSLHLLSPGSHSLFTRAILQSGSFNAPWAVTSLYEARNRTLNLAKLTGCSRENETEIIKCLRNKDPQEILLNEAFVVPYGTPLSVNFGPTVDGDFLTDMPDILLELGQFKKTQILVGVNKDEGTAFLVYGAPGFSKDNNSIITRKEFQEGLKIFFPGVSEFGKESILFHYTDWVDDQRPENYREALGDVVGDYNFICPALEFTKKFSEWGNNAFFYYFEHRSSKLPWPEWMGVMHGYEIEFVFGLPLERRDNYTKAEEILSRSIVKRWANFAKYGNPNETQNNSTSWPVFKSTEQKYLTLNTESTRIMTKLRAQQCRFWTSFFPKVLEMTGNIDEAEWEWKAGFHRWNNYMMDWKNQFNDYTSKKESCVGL

Target: Cholinesterase (Homo sapiens, UniProt P06276)
Assay: Inhibition of BChE (unknown origin) using butyrylthiocholine chloride as substrate at 0.5 mM preincubated for 30 mins before substrate addition measured after 30 mins by Ellman method relative to control

Compound: CNC(=O)Oc1ccc2c(c1)[C@]1(C)CCN(C)[C@@H]1N2C
- inhibition: 82.8%
